Test results reported in paper PMC4431592 (Journal of medicinal chemistry, 2015).

How the values were obtained:
HCV = settings: read-out: EC50 for the antiviral effect; cited from earlier work
Huh-7.5 cells = test: Cellular viability, alamarBlue-based assay; settings: HCVpp entry assay, 4 hour treatment

For `C#Cc1cccc(Nc2ncnc3cc(OCCOC)c(OCCOC)cc23)c1` [erlotinib], the EC50 (HCV) is given as 500 to 1500 nM.
With `COc1cc(-c2cnc3c(N4CCOCC4)snc3c2)ccc1N` [Compound 12i, 2-Methoxy-4-(3-morpholinoisothiazolo[4,3-b]pyridin-6-yl)aniline] the “effect on cellular viability (in words)” value (Huh-7.5 cells) was “minimal effect on cellular viability”.
